Values quoted from earlier work as cited in PMC4896453 (PLoS ONE, 2016).

Columns and labels:
[1] = tested on: rat; conditions: rat models; cited from earlier work
[2] = tested on: rat; conditions: rat models; cited from earlier work; remark: listed apart in the source

Compound: CN(C)[C@]1(c2ccccc2)CC[C@]2(CC1)OCCc1c3cc(F)ccc3[nH]c12
- time to tolerance [1]: 26 days
- effect on motor coordination or respiration [2]: did not disrupt motor coordination or respiration
